Test [1] deals with ProLink tagged human APJ (Apelin Receptor) in CHO-K1 AGTRL1 β-Arrestin cells (human) (UniProt P35414). Nature of the test: cell-based or functional assay.
Test [2] deals with Apelin Receptor (APJ) stably overexpressed in CHO-K1 AGTRL1 Gi cells (human) (UniProt P35414). In words: cell-based or functional assay.

Chains of the proteins cited; added tags and fusions are not shown. Lines headed by an entry give the natural chain unless they say otherwise; changes in a name come on top.
UniProt P35414: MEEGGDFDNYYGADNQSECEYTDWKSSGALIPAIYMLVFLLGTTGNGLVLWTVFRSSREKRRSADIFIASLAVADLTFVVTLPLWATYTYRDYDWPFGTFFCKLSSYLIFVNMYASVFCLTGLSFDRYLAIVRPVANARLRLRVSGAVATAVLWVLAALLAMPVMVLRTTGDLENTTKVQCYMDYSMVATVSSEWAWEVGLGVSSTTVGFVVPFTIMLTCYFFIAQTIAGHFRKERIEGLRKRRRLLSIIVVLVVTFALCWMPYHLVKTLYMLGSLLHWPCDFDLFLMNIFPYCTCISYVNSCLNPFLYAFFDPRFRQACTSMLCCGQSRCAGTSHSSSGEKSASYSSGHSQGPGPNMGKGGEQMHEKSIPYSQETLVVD
UniProt Q9ULZ1: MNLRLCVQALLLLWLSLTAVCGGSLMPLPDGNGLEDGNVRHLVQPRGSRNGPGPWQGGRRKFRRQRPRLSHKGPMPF

“Apelin-13 (from UniProt Q9ULZ1 65-77) (ligand)” had a β-Arrestin recruitment, reference response (500 nM Apelin-13, positive control) (% of Apelin-13 response) in test [1] of 100. As for “Pyr-Apelin-13 (from UniProt Q9ULZ1 65-77) (ligand)”, in test [2], the cAMP levels, reference response (500 nM Pyr-Apelin-13, 10 µM forskolin) (% of Pyr-Apelin-13 response) came to 100.

Source of the values: patent US20220324909A1, “THERAPEUTIC PEPTIDES” (COHBAR, INC., priority 2019, published 2022).
